Measured values reported in patent US20230398161A1 (priority 2020, published 2023).

Tested on: 300-strain clinical isolate panel with an additional 4 strains
Assay: Host range of CK618 and antibiotics alone and in combination, 304-isolate panel
Format: cell-based, E. coli
Conditions: antibiotic at concentration printed after name plus CK618

CC1=C(C(=O)O)N2C(=O)[C@@H](NC(=O)[C@H](N)c3ccccc3)[C@H]2SC1 [Cephalexin]
Host range % on all strains (n = 304), Combination: Antibiotic + LBP-CK618: 85.5%
